# Assay results published in patent US7064117B2, “Anti-cancer 2,3-dihydro-1H-pyrrolo[3,2-f]quinoline complexes of cobalt and chromium” (Auckland Uniservices Limited, priority 2001, dated 2006).
# Legend:
# [1] = tested on: AA8; experiment: cytotoxicity, 4 h aerobic drug exposure, AA8; assay type: cell-based, Chinese hamster; conditions: read-out: IC50 AA8; 4 h aerobic exposure; mean ± sem
# [2] = tested on: UV4 cell line; experiment: cytotoxicity, 4 h aerobic drug exposure, UV4; assay type: cell-based, Chinese hamster; conditions: read-out: IC50 UV4; 4 h aerobic exposure; mean ± sem
# [3] = tested on: EMT6; experiment: cytotoxicity, 4 h aerobic drug exposure, EMT6; assay type: cell-based, murine; conditions: read-out: IC50 EMT6; 4 h aerobic exposure; mean ± sem
# [4] = tested on: SKOV3; experiment: cytotoxicity, 4 h aerobic drug exposure, SKOV3; assay type: cell-based, human; conditions: read-out: IC50 SKOV3; 4 h aerobic exposure; mean ± sem
substance,measurement,setting,value
[Co(TACN)(8-HQ)(CN)]ClO4,IC50,[1],5.67 mM
same,IC50,[2],6.14 mM
same,IC50,[3],3.58 mM
same,IC50,[4],6.38 mM
